Laboratory results reported in patent US20110129868A1, “CELL CAPABLE OF REPLICATING NOVEL HCV REPLICON, CELL CAPABLE OF REPLICATING FULL-LENGTH HCV RNA, AND USE OF THOSE CELLS” (priority 2008, published 2011).

Legend:
Format in all cases: cell-based, HCV-O strain (genotype 1b)
Settings in all cases: luciferase activity after 72 hours
[1] = system: full-length HCV RNA replication in ORL11 cells
Procedure: (§1) Renilla luciferase was quantified by collecting cells using a Renilla Luciferase Assay System (Promega) according to the manufacturer's experiment protocol.
(§2) Luciferase activity of each cell line was then measured at hour 24, 48, and 72. […] SD values were calculated based on the results from three samples at each point. […]

[2] = system: full-length HCV RNA replication in ORL8 cells
Procedure: as §1, §2

[3] = system: full-length HCV RNA replication in OR6 cells
Procedure: as §1
Drugs reported to have anti-HCV activities were evaluated using an ORL8- or ORL11-cell assay system. An OR6-cell assay system was used as a control. Note that, depending on compounds, use of DMSO or ethanol as a solvent is needed; however, it has been confirmed that the assay system is not affected as long as the DMSO concentration is 0.5% or less, and that the ethanol concentration is 0.2 to 0.25% (data not presented).
IFN-α (0, 0.1, 0.2, 0.5, 1, 2, 10 IU/ml: Sigma, I2396) was added to each cell line, and luciferase activity after 72 hours was measured. By analysis, the EC50 values of the ORL8, ORL11, and OR6 cells were calculated as 0.13 IU/ml, 0.30 IU/ml, and 0.40 IU/ml, respectively. Values close to these were obtained in the same experiment repeated three times, yielding good reproducibility. The ORL8 cells had the highest sensitivity for IFN-α, followed by ORL11 cells and OR6 cells.

IFN-β: interferon beta, pharmaceutical agent having an anti-HCV action
EC50 (50% effective drug concentration) [1]: 0.18 IU/ml | EC50 (50% effective drug concentration) [2]: 0.10 IU/ml | EC50 [3]: 0.35 IU/ml
